Target: T1, full-length gelatinase B (Homo sapiens, UniProt P14780)
T1 construct: full-length gelatinase B (FLGB) hydrolysis of thiopeptolide
Test: full-length gelatinase B hydrolysis of thiopeptolide (FLGB)
Format: biochemical
Details: thiopeptolide substrate
Text: The invention compounds have been evaluated in standard in vitro assays and shown to be potent inhibitors of several matrix metalloproteinase enzymes. Specifically, the compounds have been evaluated for their ability to inhibit gelatinase A-catalyzed hydrolysis of thiopeptolide and gelatin, and the stromelysin-catalyzed hydrolysis of thiopeptolide.
The compounds were additionally evaluated for their ability to inhibit full-length collagenase hydrolysis of thiopeptolide substrate (FLC) and full-length gelatinase B (FLGB) hydrolysis of thiopeptolide.

By UniProt entry, the sequences of proteins in these tests, tags left out. Residues count along the entry.
UniProt P14780, 94-707, species assumed: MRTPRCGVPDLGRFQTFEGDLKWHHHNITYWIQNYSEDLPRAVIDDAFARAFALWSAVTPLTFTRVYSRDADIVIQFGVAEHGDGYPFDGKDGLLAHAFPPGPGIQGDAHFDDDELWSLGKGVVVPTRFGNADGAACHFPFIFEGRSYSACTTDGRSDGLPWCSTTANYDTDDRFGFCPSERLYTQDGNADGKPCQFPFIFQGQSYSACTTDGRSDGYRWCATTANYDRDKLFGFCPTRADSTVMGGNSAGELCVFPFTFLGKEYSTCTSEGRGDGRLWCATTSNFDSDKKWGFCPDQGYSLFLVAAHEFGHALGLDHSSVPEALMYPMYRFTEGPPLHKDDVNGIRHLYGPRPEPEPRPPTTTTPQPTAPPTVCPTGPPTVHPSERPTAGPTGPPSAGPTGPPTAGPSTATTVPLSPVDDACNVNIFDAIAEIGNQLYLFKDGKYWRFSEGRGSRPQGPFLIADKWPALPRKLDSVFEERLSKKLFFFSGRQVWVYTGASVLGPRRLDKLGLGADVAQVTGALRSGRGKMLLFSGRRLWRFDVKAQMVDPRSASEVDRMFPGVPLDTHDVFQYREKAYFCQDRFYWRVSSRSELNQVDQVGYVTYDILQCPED

CC(C)[C@H](NS(=O)(=O)c1ccc(-c2cccc(Br)c2)cc1)C(=O)O [Example 7, (S)-2-(3'-Bromo-biphenyl-4-sulfonylamino)-3-methyl-butyric acid]
IC50: 30 µM
